This series can be described thus: Solubility in ethanol/propylene glycol/water (85:10:5). The series is classed as physicochemical. The settings on record: R1 in meta position (compound of the invention); ethanol/propylene glycol/water (85:10:5) by volume. On the procedure: The solubilities are measured in ethanol/propylene glycol/water (85:10:5) (proportions are by volume).

These results are taken from patent US8119672B2, “Compounds, compositions and methods for treating or preventing pneumovirus infection and associated diseases” (Microdose Therapeutx, Inc., priority 2002, dated 2012).

Consider “2,2′-[[(3-Methoxyethyl)phenyl]methylene]bis[4-[[(5-methyl-1H-tetrazol-1-yl)imino]methyl]]phenol [Example 16]”, for which the “Meta Position Solubiity” value amounted to 1.14 mg/mL.
